Experimental findings from patent US4252898A are described below.

This experiment has as its system NRRL 11459. Nature of the experiment: Inhibitor sensitivity of the producing strain (inhibitor in ISP #2 agar). The format is cell-based, Streptomyces flocculus. Conditions: NRRL11459, read-out: Inhibitor sensitivity, MIC. On the procedure: The cell wall sugars are determined using a modification of the procedure of M. Lechevalier, "Chemical Methods as Criteria for the Separation of Actinomycetes Into Genera", workshop sponsored by the subcommittee on Actionomycetes of the American Society of Microbology, Dr. Thoman G. Pridham, Convenor, held at the Institute of Microbology, Rutgurs University, New Brunswick, N.J., 1971. The isomer of diaminopimelic acid is determined using the method of B. Becker Appl. Microbiol., 11 421 ([…]). Amino acid analysis is determined with washed cell wall fragments. Melanoid pigments are determined using ISP #6 (peptone-yeast extract iron agar) and ISP #7 (tyrosine agar). Inhibitors are tested by incorporating varing concentrations of inhibitors into ISP #2 agar plates and streaking the culture on the surface. Starch hydrolysis is determined by testing for the presence of starch with iodine on ISP #4 agar plates. Temperature range, NaCl tolerance, pH range, and antibiotic sensitivity are done using ISP #2 agar medium. The range of temperatures are: 25°, 28°, 30°, 34°, 37°, 40°, 45°, 50°, 55° C. NaCl tolerance is measured by adding NaCl to the agar to equal: 0, 1, 2, 3, 4, 5, 6, 8, 10, 12% and incubating at 30° C. for 7 days. Antibiotic sensitivity is determined using sensitivity discs padded onto seeded agar plates of ISP #2 medium and incubating at 30° C. for 14 days.

For `CCN(CC)c1ccc2cc3ccc(=[N+](CC)CC)cc-3oc2c1` [Pyronin B], the MIC – broadly, the smallest concentration in the dilution series that meets the test's criterion for growth inhibition – turned out to be 250 µg/mL.
